Test results as given in patent US9428504B2, “7-hydroxy-spiropipiperidine indolinyl antagonists of P2Y1 receptor” (BRISTOL-MYERS SQUIBB COMPANY, priority 2012, dated 2016).

Protein sequences, listed by entry. Tags and fused reporters are not part of them. Lines headed by an entry give the natural chain unless they say otherwise; changes in a name come on top.
UniProt P47900: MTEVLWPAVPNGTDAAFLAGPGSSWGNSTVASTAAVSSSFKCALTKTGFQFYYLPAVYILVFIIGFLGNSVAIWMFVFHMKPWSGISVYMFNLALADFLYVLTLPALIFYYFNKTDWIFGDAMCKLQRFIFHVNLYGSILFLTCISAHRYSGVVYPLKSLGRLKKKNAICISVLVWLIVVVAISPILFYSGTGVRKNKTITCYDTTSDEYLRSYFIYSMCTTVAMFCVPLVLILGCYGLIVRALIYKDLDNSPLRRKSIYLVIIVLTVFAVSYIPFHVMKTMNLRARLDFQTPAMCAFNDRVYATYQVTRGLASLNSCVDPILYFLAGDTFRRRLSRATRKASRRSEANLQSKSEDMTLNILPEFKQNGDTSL

Target: cloned human P2Y1 receptors (Homo sapiens (Human), UniProt P47900)
Assay: Binding Assay B: Scintillation Proximity Assay (SPA) for P2Y1 binding
Conditions: read-out: Kd for 2MeS-ADP to the P2Y1 receptor
Procedure: A SPA membrane binding assay was used to identify inhibitors of [^33P] […] Binding reactions were performed in 384-well OptiPlates (PerkinElmer Life Sciences, Cat #6007299) in a volume of 50 μL containing ˜15 fmol of P2Y1 receptor (1.7 μg of total protein), 0.3 nM [^33P] […] Reactions were allowed to proceed to completion at room temperature for 1 hour followed by centrifugation of the plate for 5 min. About 40 μL of the aqueous solution was aspirated. Plates were sealed and the [^33P]

In the case of `CSc1nc(N)c2ncn([C@@H]3O[C@H](COP(=O)(O)OP(=O)(O)O)[C@@H](O)[C@H]3O)c2n1` [Example 2MeS-ADP, 2 methylthio adenosine diphosphate, reference compound], the Kd is reported as 14 nM.
